The target in one experiment is T1, RAMP2-CLR (AM1 receptor) (Homo sapiens, UniProt O60895+Q16602).
T1 construct: FLAG; expressed in transfected cells; host or cells: HEK-293 or HEK-293S cells, transient transfection, 1:1 RAMP:CLR
The experiment can be described thus: cAMP accumulation, HEK-293S cells, RAMP2 + CLR. It counts as cell-based. The procedure: HEK-293 cells were transfected with FuGENE 6 (Roche Applied Science) in accordance with the manufacturer's instructions using a 1:3 (w:v) DNA:FuGENE ratio and a 1:1 ratio of RAMP to CLR. […] The transfected cell lines were grown for 24–48 h prior to assaying.
The transfected HEK-293 cells were washed in PBS, resuspended in stimulation buffer (PBS containing 0.1% BSA and 0.5 mM IBMX), and seeded at 2000 cells/well in 384-well white Optiplates. Ligands were added in the range of 1 pM to 1 mM, and cAMP accumulation was measured after 30 min of stimulation using a LANCE® cAMP detection kit (PerkinElmer Life Sciences). […] Plates were read using a Mithras LB 940 multimode microplate reader (Berthold Technologies). […] Values were converted to concentration using a cAMP standard curve performed in parallel.
Data analysis for cAMP assays was performed in GraphPad Prism 6.0f (San Diego, CA). […] These values were then used to quantify signaling bias as change in log (τ/Ka) relative to the natural cognate ligand for the respective receptor ([41]). […] Statistical differences were analyzed using one-way ANOVA or Student's t test as appropriate with post hoc Bonferroni's or Dunnett's multiple comparisons, and p < 0.05 was considered significant. […] To quantitate the ligand-dependent response in the yeast system, a strain lacking GPA1 (MMY11), grown in rich medium, was used as a standard ([72]). […]

Protein sequences, listed by entry. Tags and fused reporters are not part of them. Residues count along the entry.
UniProt O60895, 43-175: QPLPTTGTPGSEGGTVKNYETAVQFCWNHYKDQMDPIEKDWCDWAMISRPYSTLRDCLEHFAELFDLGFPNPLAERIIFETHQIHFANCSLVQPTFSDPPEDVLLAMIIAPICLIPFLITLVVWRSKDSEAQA
UniProt Q16602, 23-461: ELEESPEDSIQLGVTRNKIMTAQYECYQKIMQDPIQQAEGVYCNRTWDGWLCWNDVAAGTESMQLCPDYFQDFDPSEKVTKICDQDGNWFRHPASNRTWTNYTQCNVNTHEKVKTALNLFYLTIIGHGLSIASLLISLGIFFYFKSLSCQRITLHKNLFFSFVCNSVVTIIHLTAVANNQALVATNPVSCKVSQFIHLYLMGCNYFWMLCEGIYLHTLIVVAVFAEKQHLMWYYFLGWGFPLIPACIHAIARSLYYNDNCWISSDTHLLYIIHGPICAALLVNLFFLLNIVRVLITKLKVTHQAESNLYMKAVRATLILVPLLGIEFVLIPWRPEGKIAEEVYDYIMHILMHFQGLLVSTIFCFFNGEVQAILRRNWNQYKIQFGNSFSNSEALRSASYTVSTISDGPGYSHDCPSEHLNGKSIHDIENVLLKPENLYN
UniProt O60896, 24-148: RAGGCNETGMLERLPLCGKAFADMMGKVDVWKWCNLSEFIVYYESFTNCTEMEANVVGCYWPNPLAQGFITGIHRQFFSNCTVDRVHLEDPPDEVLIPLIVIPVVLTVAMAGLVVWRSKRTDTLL

A further experiment has as its target T2, RAMP3-CLR (AM2 receptor) (Homo sapiens, UniProt O60896+Q16602).
T2 construct: FLAG; expressed in transfected cells; host or cells: HEK-293 or HEK-293S cells, transient transfection, 1:1 RAMP:CLR
The experiment can be described thus: (Ca^2+)i mobilization, HEK-293S cells, RAMP3 + CLR. It counts as cell-based. The procedure: HEK-293 cells, provided by Dr. Jügen Müller (University of Aston), were cultured in DMEM supplemented with 10% heat-inactivated FBS and kept at 37 °C in a humidified 95% air, 5% CO2 incubator. HEK-293S cells (a gift from AstraZeneca) were cultured in DMEM supplemented with 8% heat-inactivated FBS and kept at 37 °C in a humidified 95% air, 5% CO2 incubator. HEK-293 cells were transfected with FuGENE 6 (Roche Applied Science) in accordance with the manufacturer's instructions using a 1:3 (w:v) DNA:FuGENE ratio and a 1:1 ratio of RAMP to CLR. HEK-293S cells were seeded into 96-well poly-D-lysine-coated plates at a density of 15,000 cells/well (determined using a Countess^TM cell counter, Invitrogen) 1 day prior to transfection. HEK-293S cells were transiently transfected as described previously ([38]) using a 1:1 ratio of RAMP to CLR. The transfected cell lines were grown for 24–48 h prior to assaying.
Transfected HEK-293 cells were grown to confluence in black, clear bottomed, 96-well plates. […] Ligands were added robotically using a Mithras LB 940 multimode microplate reader in the range of 10 pM to 1 μM, and fluorescence was determined immediately post-injection with an excitation wavelength set to 485 nm and an emission wavelength set to 535 nm. […] Peak magnitude was calculated using five-point smoothing followed by correction against background fluorescence. […]

The values that follow come from PMC5063977 (The Journal of Biological Chemistry, 2016).

One may read the EC50 as the concentration giving half of the maximal effect. For orientation: Kd means the equilibrium constant for the complex coming apart. In the case of `CSCC[C@H](NC(=O)[C@H](CC(C)C)NC(=O)[C@H](CCC(N)=O)NC(=O)[C@H](Cc1c[nH]c2ccccc12)NC(=O)[C@H](CC(C)C)NC(=O)[C@H](CCCNC(=N)N)NC(=O)[C@H](Cc1c[nH]cn1)NC(=O)[C@H](CO)NC(=O)[C@H](CC(C)C)NC(=O)[C@H](CC(N)=O)NC(=O)[C@H](CCC(N)=O)NC(=O)[C@@H](NC(=O)[C@H](CCC(N)=O)NC(=O)[C@@H]1CSSC[C@H](NC(=O)CNC(=O)[C@@H](NC(=O)[C@H](CCCNC(=N)N)NC(=O)[C@H](CC(C)C)NC(=O)[C@H](CC(C)C)NC(=O)[C@H](CCC(N)=O)NC(=O)[C@H](C)NC(=O)[C@H](CCC(N)=O)NC(=O)[C@@H](N)[C@@H](C)O)C(C)C)C(=O)N[C@@H](C(C)C)C(=O)N[C@@H](CC(C)C)C(=O)NCC(=O)N[C@@H]([C@@H](C)O)C(=O)N1)C(C)C)C(=O)NCC(=O)N1CCC[C@H]1C(=O)N[C@@H](C)C(=O)NCC(=O)N[C@@H](CCCNC(=N)N)C(=O)N[C@@H](CCC(N)=O)C(=O)N[C@@H](CC(=O)O)C(=O)N[C@@H](CO)C(=O)N[C@@H](C)C(=O)N1CCC[C@H]1C(=O)N[C@H](C(=O)N[C@@H](CC(=O)O)C(=O)N1CCC[C@H]1C(=O)N[C@@H](CO)C(=O)N[C@@H](CO)C(=O)N1CCC[C@H]1C(=O)N[C@@H](Cc1c[nH]cn1)C(=O)N[C@@H](CO)C(=O)N[C@@H](Cc1ccc(O)cc1)C(N)=O)C(C)C` [AM2, adrenomedullin 2], the EC50 at RAMP2-CLR (AM1 receptor) is 2.69 nM. Further, at RAMP3-CLR (AM2 receptor), the EC50 is 36.3 nM and the Kd was 44.7 nM.
